Patent US6262054A (priority 1996, dated 2001)

Tested on: P388 Murine Tumor
Excerpt: Combination treatment in mice. The P388 lymphoidal tumor was transplanted intraperitoneally (10^6 cells/mouse) into […] mice. The animals were randomized into control and treated groups after tumor implant. […] Therapy was repeated three times at four day intervals between each treatment.

CN(Cc1cnc2nc(N)nc(N)c2n1)c1ccc(C(=O)N[C@@H](CCC(=O)O)C(=O)O)cc1 [MTX, methotrexate]
Therapeutic activity (in words) (P388 in mice, maximum tolerated dose): this tumor was responsive to both folate analogues
Increased Life-Span (at maximum tolerated dose, q4d × 3 ip): +238%
